One compound from PMC5018964, “Visualization and ligand-induced modulation of dopamine receptor dimerization at the single molecule level” (Scientific Reports, 2016) can be followed below.

The chains behind the UniProt entries cited, without tags or fusion partners. Where a name states a change or a piece, a line headed by the entry shows the natural chain unless it says otherwise. Residues count along the entry.
UniProt P35462, whole entry: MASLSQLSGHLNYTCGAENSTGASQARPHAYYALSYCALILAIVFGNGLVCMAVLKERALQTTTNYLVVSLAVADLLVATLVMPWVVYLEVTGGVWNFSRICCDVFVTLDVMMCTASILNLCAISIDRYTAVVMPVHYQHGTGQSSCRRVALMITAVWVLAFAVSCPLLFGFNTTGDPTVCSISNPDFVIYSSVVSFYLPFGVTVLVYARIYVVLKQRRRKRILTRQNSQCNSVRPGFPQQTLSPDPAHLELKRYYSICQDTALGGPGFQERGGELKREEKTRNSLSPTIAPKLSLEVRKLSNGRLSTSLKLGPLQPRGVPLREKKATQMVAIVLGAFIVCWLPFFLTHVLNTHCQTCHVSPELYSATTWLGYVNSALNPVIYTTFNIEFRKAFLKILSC
UniProt P14416, whole entry: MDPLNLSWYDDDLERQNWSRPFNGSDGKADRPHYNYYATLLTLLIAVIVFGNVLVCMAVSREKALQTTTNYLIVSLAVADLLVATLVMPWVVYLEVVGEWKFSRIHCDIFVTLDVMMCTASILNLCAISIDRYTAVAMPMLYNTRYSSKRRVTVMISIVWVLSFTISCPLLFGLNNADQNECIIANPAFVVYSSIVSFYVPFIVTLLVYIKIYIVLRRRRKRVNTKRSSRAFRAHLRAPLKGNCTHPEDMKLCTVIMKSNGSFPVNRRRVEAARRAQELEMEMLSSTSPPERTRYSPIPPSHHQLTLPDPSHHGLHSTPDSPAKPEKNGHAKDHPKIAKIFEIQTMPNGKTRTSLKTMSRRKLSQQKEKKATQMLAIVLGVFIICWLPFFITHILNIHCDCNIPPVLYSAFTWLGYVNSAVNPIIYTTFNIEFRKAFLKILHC
UniProt P14416, 1-414 isoform P14416-2: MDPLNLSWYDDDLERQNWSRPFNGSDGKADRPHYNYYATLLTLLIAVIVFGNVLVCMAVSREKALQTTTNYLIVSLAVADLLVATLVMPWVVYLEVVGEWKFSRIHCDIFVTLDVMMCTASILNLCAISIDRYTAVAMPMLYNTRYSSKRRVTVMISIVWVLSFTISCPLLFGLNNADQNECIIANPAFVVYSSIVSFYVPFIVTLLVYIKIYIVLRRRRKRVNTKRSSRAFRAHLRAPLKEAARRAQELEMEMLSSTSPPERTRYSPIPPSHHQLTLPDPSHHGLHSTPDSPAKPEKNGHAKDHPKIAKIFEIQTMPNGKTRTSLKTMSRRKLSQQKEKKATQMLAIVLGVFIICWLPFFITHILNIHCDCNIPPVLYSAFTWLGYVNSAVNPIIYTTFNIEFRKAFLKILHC

SMILES strings stand for the structures.

One experiment deals with human D3 (Homo sapiens, UniProt P35462). Briefly: [3H]spiperone competition/saturation binding, membranes of CHO cells expressing human D3. The following applies: read-out: Ki ± s.d. hD3; [³H]spiperone competition, CHO cell membranes.
The target of the next experiment is T1, SNAP-D2L receptor (Homo sapiens, UniProt P14416).
T1 construct: expressed in transfected cells
Briefly: Single-molecule TIRF-M of SNAP-D2L receptors in CHO cells with ligands (dimerization, mobility, colocalization). The following applies: Alexa546-labeled SNAP-D2L in CHO cells incubated with ligand. The experiment is classed as cell-based.

Another experiment addresses T2, human D2S (Homo sapiens, UniProt P14416).
T2 construct: expressed in transfected cells
Nature of the experiment: [3H]spiperone competition/saturation binding, membranes of CHO cells expressing human D2S. The following applies: [³H]spiperone competition, CHO cell membranes; read-out: Ki ± s.d. hD2S.

Another experiment addresses T3, human D2L (Homo sapiens, UniProt P14416).
T3 construct: expressed in transfected cells
Briefly: [3H]spiperone competition/saturation binding, membranes of CHO cells expressing human D2L. The following applies: [³H]spiperone competition, CHO cell membranes; read-out: Ki ± s.d. hD2L.

In general, Ki refers to a dissociation constant, usually derived from enzyme kinetics or from competition with a known ligand. In the case of `CCCN(CCC)[C@H]1CCc2c(O)cccc2C1` [S-(–)-5-OH-DPAT, reference compound], the Ki stood at 1.3 ± 0.4 nM on human D3, 7.1 ± 2 nM on human D2S and 8.6 ± 6.5 nM at human D2L. The “effect on monomer/dimer ratio and mobility of the SNAP-D2L receptor compared to ligand-free conditions” value at SNAP-D2L receptor was “increase of receptor dimerization and mobility”.
